Data from patent US11419870B2, “Intermittent dosing of MDM2 inhibitor” (Novartis AG, priority 2014, dated 2022).

Test: Tolerability in SJSA-1 tumor-bearing nude rat (body weight, survival)
Format: in vivo
Conditions: for change in BW: 3 days post treatment
Method: Subcutaneous tumors were induced by concentrating 1.0×10^7 SJSA-1 cells in 50% Matrigel® and injecting in the right flank of Harlan nude rats. Efficacy experiment could start 14 days post cell injection. Compound A was made-up fresh for each administration. For i.v. injection (4 ml/kg), Compound A was dissolved in 30% PEG300, 10% Solutol HS 15, 6% Pluronic F68 and 54% water. For per os (p.o.) injection (5 ml/kg), Compound A was dissolved in methylcellulose 0.5% w/V in phosphate buffer pH 6.8 50 mM. The animals were treated either at a high dose (20 mg/kg i.v. or 27 mg/kg p.o.) once every 3 weeks (q3w) or at a high dose (15 mg/kg p.o.) followed 24 h later by a daily low dose treatment (3 mg/kg p.o., 2 weeks on/2 weeks off).
[formula] Similarly, the body-weight (BW) of the animal was measured three times per week allowing calculation at any particular time-point relative to the day of initiation of treatment (day 0) of the percentage change in BW (Δ % BW).

COc1ncc(-c2nc3c(n2C(C)C)[C@H](c2ccc(Cl)cc2)N(c2cc(Cl)cn(C)c2=O)C3=O)c(OC)n1 [Compound A, (S)-5-(5-Chloro-1-methyl-2-oxo-1,2-dihydro-pyridin-3-yl)-6-(4-chloro-phenyl)-2-(2,4-dimethoxy-pyrimidin-5-yl)-1-isopropyl-5,6-dihydro-1H-pyrrolo[3,4-d]imidazol-4-one]
Survival (i.v. q3w 13.7 mg/kg, week 1 post treatment): 6/6 | Survival (i.v. q3w 13.7 mg/kg, week 2 post treatment): 6/6 | Survival (i.v. q3w 18.2 mg/kg, week 1 post treatment): 5/5 | Survival (i.v. q3w 18.2 mg/kg, week 2 post treatment): 5/5 | Survival (i.v. q3w 18.2 mg/kg, week 3 post treatment): 5/5 | Survival (i.v. q3w 18.2 mg/kg, week 5 post treatment): 5/5 | Survival (i.v. q3w 18.2 mg/kg, week 6 post treatment): 5/5 | animals that survived the 2 full cycles (i.v. q3w 20 mg/kg): 2/7 | change in BW (i.v. q3w 13.7 and 18.2 mg/kg): slight loss in BW | change in bodyweight (BW) (p.o. q3w 20 and 27 mg/kg, 3 days post each treatment): slight decrease in bodyweight | change in BW (single i.v. 20 mg/kg, all others rats): slight decrease in BW
